{"source": "patent US20100093611A1", "about": "“COMPOUNDS AND METHODS FOR TREATING OR PREVENTING AUTOIMMUNE DISEASES” (priority 2007, published 2010)", "system": "HSV-1", "assay": "In vitro anti-viral assay, HSV-1/luciferase replication in Hep-2 cells with IFN-α", "format": "cell-based, Herpes Simplex Virus-1", "details": "MOI 5, 48 h, even at higher doses (FIG. 7A, 7B)", "method": "Hep-2 cells were seeded at 2×10^4 cells/well in 96 well plates. Cells were infected with HVS1 at an Multiplicity Of Infection (MOI) of 5 for 1 h at 37° C. 24 hours post-seeding. Virus was aspirated, cells were washed, and 200 μl of medium with or without IFN-α or compound were added as indicated. After 48 h, cells were washed, lysed and luciferase activity were measured according to the manufacturer's instructions. […] Each bar represents the mean+/−SEM of triplicates from one experiment.\nHerpes Simplex Virus-1 (HSV-1) represents one of the major recurrent virus infections observed in SLE patients^37. Type-I and Type-II IFN signals are known to block HSV-1 dissemination in mice^38, and as a consequence, a therapeutic approach that neutralizes their combined activity may constitute an important safety concern. Therefore, the impact of Apicidin 1a, IKK2 inhibitor IV, and JAK inhibitors on HSV-1 replication regulated by IFN-α in Hep-2 cells was examined in vitro. HSV-1/luciferase was used to infect Hep-2 cells, and viral replication was monitored by luciferase expression.\nHep-2 cells were propagated in MEM (Invitrogen) with 10% fetal bovine serum. HSV-1 recombination virus with both firefly and Renilla luciferase genes in a divergent orientation from a single multiple cloning site were a gift from Dr. Leib's lab. […]"}
{"smiles": "CC(C)(C)c1nc2c3ccc(F)cc3c3c(=O)[nH]ccc3c2[nH]1", "note": "[Compound 7, JAK Inhibitor I]", "values": [{"measurement": "Effect on IFN-α dependent anti-viral activity (HSV-1 replication)", "value": "retained the majority of IFN-α dependent anti-viral activity"}]}
